Measured values taken from PubChem BioAssay AID602229 (The Scripps Research Institute Molecular Screening Center, 2012).
The list shows a part of the results, in another mix than the full data. The source made the active and inactive calls.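 How the source made its calls: active means inhibition above the mean of all tested compounds plus 3 SD (cut at about 70% in these data); inactive means the rest.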

Sequences of proteins named here, by UniProt entry; tags and fusion partners are left off.
UniProt Q9Y5X4, whole entry: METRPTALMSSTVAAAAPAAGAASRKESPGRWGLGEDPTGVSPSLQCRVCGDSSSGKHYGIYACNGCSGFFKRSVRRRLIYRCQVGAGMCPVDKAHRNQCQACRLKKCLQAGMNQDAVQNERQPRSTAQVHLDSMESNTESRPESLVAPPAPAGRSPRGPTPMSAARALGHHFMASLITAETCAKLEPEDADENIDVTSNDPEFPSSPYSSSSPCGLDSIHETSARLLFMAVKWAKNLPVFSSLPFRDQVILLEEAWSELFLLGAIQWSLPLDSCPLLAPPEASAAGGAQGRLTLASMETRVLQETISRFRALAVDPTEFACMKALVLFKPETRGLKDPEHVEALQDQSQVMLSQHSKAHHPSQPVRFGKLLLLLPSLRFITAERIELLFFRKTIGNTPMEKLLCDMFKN

Biological target: Photoreceptor-specific nuclear receptor (Homo sapiens) (UniProt Q9Y5X4)
Assay: NR2E3 agonists in two-hybrid cells, primary screen, cell-based, luminescence, CHO-S, Gal4-NCOR/VP16-NR2E3 (AID 602229);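 further: 0% = DMSO with NR2E3 transfected cells and 100% = cells lacking NR2E3 construct; higher means lower luciferase signal from less NR2E3 corepressor binding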
Settings: luciferase, at 3.98 µM, active compounds read high

Compound	inhibition of corepressor binding
CCOP(=O)(Nc1ccc(C)cn1)OCC	inactive: -11.5%
